These results are taken from ChEMBL document CHEMBL3862037 (J Med Chem, 2016).

By UniProt entry, the sequences of proteins in these tests, tags left out.
UniProt P31652, whole entry: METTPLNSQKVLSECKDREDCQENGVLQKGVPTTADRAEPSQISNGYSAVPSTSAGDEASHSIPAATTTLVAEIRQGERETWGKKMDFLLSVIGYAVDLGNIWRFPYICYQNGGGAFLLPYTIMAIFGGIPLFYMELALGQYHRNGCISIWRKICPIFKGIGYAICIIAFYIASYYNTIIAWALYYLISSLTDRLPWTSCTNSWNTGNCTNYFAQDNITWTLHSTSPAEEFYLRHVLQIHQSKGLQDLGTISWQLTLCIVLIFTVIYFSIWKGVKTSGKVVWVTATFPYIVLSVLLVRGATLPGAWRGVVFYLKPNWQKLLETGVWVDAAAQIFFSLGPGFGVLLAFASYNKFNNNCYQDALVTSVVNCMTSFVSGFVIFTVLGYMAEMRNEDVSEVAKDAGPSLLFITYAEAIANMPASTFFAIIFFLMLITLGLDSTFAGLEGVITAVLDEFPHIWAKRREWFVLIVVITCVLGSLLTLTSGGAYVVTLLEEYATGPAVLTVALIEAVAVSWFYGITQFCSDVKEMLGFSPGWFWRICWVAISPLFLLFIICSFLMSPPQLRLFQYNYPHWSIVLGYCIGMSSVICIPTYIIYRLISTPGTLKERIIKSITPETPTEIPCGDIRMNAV

The species named for assay [1] is Rattus norvegicus. As to the kind of experiment: Selectivity index, ratio of Ki for NET in Sprague-Dawley rat frontal cortex membranes to Ki for DAT in Sprague-Dawley rat brain membranes. It is filed as cell membranes.
The species named for assay [2] is Rattus norvegicus. As to the kind of experiment: Selectivity index, ratio of Ki for SERT in Sprague-Dawley rat brain stem membranes to Ki for DAT in Sprague-Dawley rat brain membranes. It is filed as cell membranes.
The target in assay [3] is Sodium-dependent serotonin transporter (Rattus norvegicus) (UniProt P31652). Put plainly: Displacement of [3H]citalopram from SERT in Sprague-Dawley rat brain stem membranes incubated for 60 mins at 100 uM by radioligand binding assay. Type of assay: tissue-based.

Bounds are passed on as bounds.

On to `[O-][S+](CCN1CCN(CCCc2ccccc2)CC1)C(c1ccc(F)cc1)c1ccc(F)cc1` (configuration not stated), for which the Ratio Ki in the assay filed under Rattus norvegicus [1] and in the assay listed under Rattus norvegicus [2] was above 100 throughout.
For the molecule `CCCCN1C2CCC1CC(OC(c1ccc(F)cc1)c1ccc(F)cc1)C2` (configuration not stated), the inhibition in assay [3] is below 50%.
For `OC(Cc1ccccc1)CN1CCN(CCSC(c2ccccc2)c2ccccc2)CC1` (configuration not stated), the Ratio Ki in the assay listed under Rattus norvegicus [1] and in the assay listed under Rattus norvegicus [2] was above 100 throughout.
Turning to `O=C(CSC(c1ccccc1)c1ccccc1)N1CCN(CCCc2ccccc2)CC1`, the Ratio Ki in the assay filed under Rattus norvegicus [1] and in the assay listed under Rattus norvegicus [2] was above 100 each time.
